Data: PubChem BioAssay AID1985 (Southern Research Specialized Biocontainment Screening …, 2009)

Each molecule was assayed on S. Typhi PhoP-promoter GFP reporter, fluorescence, 4 h (assay: modified counter assay using GFP fluorescence, PhoP regulon inhibitor project, dose response (AID 1985)).

Point of comparison: O=C(NNC(=S)Nc1ccc(Cl)c(Cl)c1)c1ccccn1, IC50 18.4 µM. Against it:
- O=C(Nc1cccnc1)c1ccc([N+](=O)[O-])o1 — within 1.5-fold, 15.9 µM
- O=C(N/N=C/c1ccc([N+](=O)[O-])o1)C1CC1 — within 1.5-fold, 22 µM
- CC(C)(C)c1nnc(N/N=C/c2cc(Br)ccc2O)n(N)c1=O — 1.6-fold higher, 28.8 µM
- CCOC(=O)c1cn(CC)c2cc(N3CCN(C)CC3)c(F)cc2c1=O — 6.3-fold higher, 115 µM
